Assay results published in patent publication US11040026B2, “Muscarinic M1 receptor positive allosteric modulators” (SUVEN LIFE SCIENCES LIMITED, priority 2016, dated 2021).

Chains of the proteins cited; added tags and fusions are not shown.
UniProt P11229, whole entry: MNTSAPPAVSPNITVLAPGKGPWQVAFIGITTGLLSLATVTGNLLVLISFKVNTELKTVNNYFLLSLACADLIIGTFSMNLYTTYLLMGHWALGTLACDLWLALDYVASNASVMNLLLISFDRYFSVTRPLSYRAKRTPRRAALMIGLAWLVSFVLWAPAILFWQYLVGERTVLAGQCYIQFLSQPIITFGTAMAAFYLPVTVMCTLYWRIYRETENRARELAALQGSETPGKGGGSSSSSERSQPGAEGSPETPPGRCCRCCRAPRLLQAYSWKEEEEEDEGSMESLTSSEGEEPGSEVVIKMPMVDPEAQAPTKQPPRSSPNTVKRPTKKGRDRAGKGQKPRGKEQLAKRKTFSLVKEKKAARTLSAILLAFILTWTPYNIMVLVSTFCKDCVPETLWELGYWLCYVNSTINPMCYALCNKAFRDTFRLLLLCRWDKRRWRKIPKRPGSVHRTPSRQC

Molecular target: recombinant human Muscarinic M1 receptor (Homo sapiens, UniProt P11229)
Experiment: Allosteric potency EC50 for muscarinic M1 receptor (CHO pCRE-Luc reporter assay)
Conditions: in presence of EC20 of acetylcholine; CHO cells, luciferase reporter, 4 hours
Description: Determination of Allosteric Potency EC50 Values for Muscarinic M1 Receptor:
A stable CHO cell line expressing recombinant human Muscarinic M1 receptor and pCRE-Luc reporter system was used for cell-based assay. The assay offers a non-radioactive based approach to determine binding of a compound to GPCRs. In this specific assay, the level of intracellular cyclic AMP which is modulated by activation or inhibition of the receptor is measured. The recombinant cells harbor luciferase reporter gene under the control of cyclic AMP response element.
The above cells were grown in 96 well clear bottom white plates in Hams F12 medium containing 10% fetal bovine serum (FBS). Prior to the addition of compounds or standard agonist, cells were serum starved overnight. Increasing concentrations of test compounds were added along with EC20 of acetylcholine in OptiMEM medium to the cells. The incubation was continued at 37° C. in CO2 incubator for 4 hours. Medium was removed and cells were washed with phosphate buffered saline. The cells were lysed and luciferase activity was measured in a Luminometer. Luminescence units were plotted against the compound concentrations using Graphpad software. EC50 values of the compounds were defined as the concentration required in stimulating the luciferase activity by 50% in presence of EC20 of acetylcholine and the results are provided in table 1.

Cn1ccc2c(Cc3ccnc(Cl)c3)cc(C(=O)N[C@H]3CCCC[C@@H]3O)nc21
EC50: 570 nM
